Laboratory results: paper PMC4331045

Target: reaction centre-light-harvesting 1-PufX complex (RC–LH1–PufX), monomeric core complex (Rba. sphaeroides (endogenous in strain 2.4.1 and its mutants)) (UniProt P0C0Y7)
Experiment: sucrose density gradient ultracentrifugation; membranes solubilised in 3% β-DDM, layered on a discontinuous 20-25% sucrose gradient with 20 mM HEPES and 0.03% β-DDM, 27,000 rpm (90,000 ×g) 40 h; bands of LH2, core monomer and core dimer quantified by densitometry (ImageJ) and absorption spectra; carotenoid strains grown photosynthetically or semi-aerobically; core dimer to monomers

percent of complexes in the dimeric state (ΔcrtA strain, spheroidene): 82%
percent of complexes in the dimeric state (ΔcrtB strain, no carotenoid; ΔcrtI strain, phytoene): 42%
stoichiometry N: 2
Substance: reaction centre-light-harvesting 1-PufX complex (RC–LH1–PufX), monomeric core complex (from UniProt P0C0Y7 1-260; P0C0Y8 1-282; P0C0Y9 1-308; P0C0X9 1-58; P0C0Y1 1-49; P13402 1-82)
